Assay outcomes as filed in PubChem BioAssay.
Many of the other results were omitted from the sample, so hits are more common in it than they were.
GIV Gai3 FP – inhibitors of GIV GBA-motif binding to rat Galpha-i3; P08753; Galpha-i3/FITC-GIV peptide fluorescence polarization, 90 min; stronger effect = lower value; scaled: aluminum fluoride 0%, vehicle 100%; percent of control (FP), % (no concentration beside the values); actives 0.42% (n = 210,000); AID 1224905;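 active means replicate mean at 85% of control or lower, very high polarization wells dropped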;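 further: wells of about 15 µL received 100 nL stock; the first replicate is given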
HCMV UL50-53 inh – cytomegalovirus nuclear egress complex inhibition; HTRF UL50-UL53 interaction, normalized percent inhibition; inhibition, % (no concentration beside the values); actives 0.15% (n = 190,000); AID 1918969; in the data active means inhibition above about 27%, passing the limit was not always enough
GIV-Gai FP conf – GIV-Galpha-i3 inhibition, FP confirmation. shares compounds with GIV Gai3 FP. FITC-GIV peptide binding to Galphai3, fluorescence polarization; active compounds read low. fluorescence polarization, mP at 100 µM. actives 38% (n = 580);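 active means inhibition score of 15 or more, meaning 100 minus mean polarization as percent of control over three replicates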;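 further: lower mP means peptide displaced from Galphai3 so more inhibition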
GIV-Gai AS conf – confirmation of inhibitors of GIV binding to human Galpha-i3 | actives 39% (n = 580) | AlphaScreen Galphai3-GIV binding, purified proteins, 90 min; active compounds read low | shares compounds with GIV Gai3 FP | AlphaScreen counts at 100 µM;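 active means inhibition score at or above a set limit, where the score is 100 minus the three-replicate mean percent of control signal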
Active calls of the source: *; · = no result.

1: Cc1oc2ncnc(N3CCCC(C(=O)NCc4cccnc4)C3)c2c1C (stereo not given)
2: CC1=C(C#N)C(=O)N(C)C(=O)/C1=C/c1ccc(-c2ccccc2C(=O)O)o1
3: CC1=C(C#N)C(=O)N(C)C(=O)/C1=C/c1ccc(-c2cccc(Cl)c2C)o1
4: C=CCN1C(=O)C(C#N)=C(C)/C(=C\c2ccc(-c3cccc(C(=O)O)c3)o2)C1=O
5: CC1=C(C#N)C(=O)N(CCc2ccccc2)C(=O)/C1=C\c1ccc(-c2cccc(Cl)c2)o1
6: CCOC(=O)C1CCC(CN(Cc2ccc(Cl)cc2)S(=O)(=O)c2ccc(Br)cc2)CC1 (stereo not given)

compound no.	1	2	3	4	5	6
GIV Gai3 FP	102	84*	106	83*	101	103
HCMV UL50-53 inh	-25	-28	-52	-6	-20	·
GIV-Gai FP conf	·	68	·	79	·	·
GIV-Gai AS conf	·	2072*	·	2591*	·	·

7: COc1nc(-c2ccccc2)cc(-c2ccc(F)cc2)c1C#N
8: CSc1ncc(C(=O)OC(C)c2nc3ccccc3c(=O)[nH]2)n1-c1ccc(F)cc1 (stereo not given)
9: O=C1/C(=C\c2ccc(F)cc2)C2=C(C(=O)N(c3ccccc3)C2c2ccc(Br)cc2)N1c1ccccc1 (stereo not given)
10: Cc1c(C(=O)NC(C)C)oc2c1-c1[nH]ncc1CC2
11: Cc1cccc(NC(=O)c2oc3c(c2C)-c2[nH]ncc2CC3)c1C
12: O=C(NCc1ccco1)/C(=C/c1ccc([N+](=O)[O-])cc1)NC(=O)c1ccccc1

compound no.	7	8	9	10	11	12
GIV Gai3 FP	104	·	133	69*	103	107
HCMV UL50-53 inh	·	-20	·	70*	-7	·
GIV-Gai FP conf	·	·	·	51*	·	·
GIV-Gai AS conf	·	·	·	26222*	·	·

13: CCn1nccc1C1CCCN1C(=O)Nc1cc(OC)cc(OC)c1 (stereo not given)
14: COc1ccc(N2C(=O)NC(=O)/C(=C\c3ccc(OCC(=O)O)c(Br)c3)C2=O)cc1
15: COc1ccc(N2C(=O)/C(=C/c3ccc(OCC(=O)O)c(Br)c3)C(=O)NC2=S)cc1
16: CC(=O)n1c(/C=C2/N=C(c3cccs3)OC2=O)cc2ccccc21
17: COc1ccc(C2=N/C(=C/c3cc4ccccc4n3C(C)=O)C(=O)O2)cc1Br
18: CCc1ccccc1N1C(=O)N(Cc2cc(=O)n3ccccc3n2)c2ccccc2S1(=O)=O

compound no.	13	14	15	16	17	18
GIV Gai3 FP	101	96	78*	95	113	87
HCMV UL50-53 inh	-28	-17	-34	-31	·	·
GIV-Gai FP conf	·	·	45*	77	·	82
GIV-Gai AS conf	·	·	20466*	29162	·	31171

19: Cc1cccc(N2C(=O)N(Cc3cc(=O)n4ccccc4n3)c3ccccc3S2(=O)=O)c1
20: Cc1ccc(-c2nccc(N3CCC(C(=O)Nc4ccc5c(c4)OCO5)CC3)n2)cc1
21: Cc1ccc2c(c1)-c1c(c(C(=O)N3CCN(c4cc(C)ccc4C)CC3)nn1C)CS2
22: Cn1nc(C(=O)N2CCN(c3ccc(Cl)cc3)CC2)c2c1-c1ccccc1SC2
23: CN1C(=O)C(Cc2ccccc2)NC1=S (stereo not given)
24: CCCCCCC(=O)Nc1cc2nc3[nH]c(=O)n(C)c(=O)c3nc2cc1C

compound no.	19	20	21	22	23	24
GIV Gai3 FP	102	102	42*	100	105	100
HCMV UL50-53 inh	·	-14	·	-16	-32	-64
GIV-Gai FP conf	·	·	36*	·	·	·
GIV-Gai AS conf	·	·	26353	·	·	·

25: CCC(=O)Nc1cc2nc3[nH]c(=O)n(C)c(=O)c3nc2cc1C
26: COc1ccc(NC(=O)CCc2nc(-c3ccccc3F)no2)c(OC)c1
27: Nc1nc2ccc(CCC(=O)O)cc2s1
28: CCc1ccc2nc(N)sc2c1
29: O=C1CN(C(=O)CSc2ncc(C(F)(F)F)cc2Cl)c2ccccc2N1
30: O=C1CN(C(=O)CSCc2c(F)cccc2Cl)c2ccccc2N1

compound no.	25	26	27	28	29	30
GIV Gai3 FP	21*	102	57*	100	·	90
HCMV UL50-53 inh	-162	-4	2	·	-2	-22
GIV-Gai FP conf	46*	·	60*	·	·	73
GIV-Gai AS conf	34033	·	3278*	·	·	45374

31: CC1=C(C(=O)Nc2cccc(Cl)c2C)C2(CCCCCC2)OC1=O
32: O=C(CCc1nc2sc3c(c2c(=O)[nH]1)CCCC3)Nc1ccc(F)cc1F
33: CCCCSc1nnc2c(n1)OC(c1ccc(Br)s1)Nc1ccccc1-2 (stereo not given)
34: CCCCSc1nnc2c(n1)OC(c1cccs1)Nc1ccccc1-2 (stereo not given)
35: Cc1c(C(=O)NC2CCN(Cc3ccccc3)CC2)sc2nc[nH]c(=O)c12
36: O=c1[nH]c(-c2ccc(O)cc2)nc2ccccc12

compound no.	31	32	33	34	35	36
GIV Gai3 FP	103	98	40*	108	114	88
HCMV UL50-53 inh	·	-21	-17	-24	·	-18
GIV-Gai FP conf	·	·	89	·	·	69
GIV-Gai AS conf	·	·	19457	·	·	45426

Sorted by length of the SMILES (smallest number first): some entries from above.
36: O=c1[nH]c(-c2ccc(O)cc2)nc2ccccc12
34: CCCCSc1nnc2c(n1)OC(c1cccs1)Nc1ccccc1-2 (stereo not given)
31: CC1=C(C(=O)Nc2cccc(Cl)c2C)C2(CCCCCC2)OC1=O

compound no.	36	34	31
GIV Gai3 FP	88	108	103
HCMV UL50-53 inh	-18	-24	·
GIV-Gai FP conf	69	·	·
GIV-Gai AS conf	45426	·	·

Going on with the list:
37: Cc1ccc(-c2nc3ccccc3c(=O)[nH]2)cc1
38: CC12CC3CC(C)(C1)CC(C(=O)NCCCN1CCCC1=O)(C3)C2
39: O=C(O)c1cn2ccccc2n1
40: CCCNc1ccc(-c2nc(-c3ccco3)no2)cc1[N+](=O)[O-]

compound no.	37	38	39	40
GIV Gai3 FP	101	99	·	96
HCMV UL50-53 inh	-11	-27	23	-12
GIV-Gai FP conf	·	·	·	·
GIV-Gai AS conf	·	·	·	·
